The conditions of series [1]: in vivo; cited from earlier work.
Another series relates to liver cell. The note with it: rat, in vivo.

SMILES strings stand for the structures.

As to `CCCCC(CC)COC(=O)CCCCC(=O)OCC(CC)CCCC` (centres unmarked) [Di(2-ethylhexyl)adipate], in series [1], the Carcinogenicity entry is given as “+”. `IC(I)I` [Iodoform]: the “pathology of liver cell hypertrophy in the liver” value in the series on liver cell is listed as “pathology of liver cell hypertrophy was seen”.
